The target of this test is human CK2 holoenzyme (Homo sapiens, UniProt P68400). In words: biochemical. To be noted: for inhibition at 10 µM: average percent inhibition at 10 µM.

Protein sequences, listed by entry. Tags and fused reporters are not part of them.
UniProt P68400, whole entry: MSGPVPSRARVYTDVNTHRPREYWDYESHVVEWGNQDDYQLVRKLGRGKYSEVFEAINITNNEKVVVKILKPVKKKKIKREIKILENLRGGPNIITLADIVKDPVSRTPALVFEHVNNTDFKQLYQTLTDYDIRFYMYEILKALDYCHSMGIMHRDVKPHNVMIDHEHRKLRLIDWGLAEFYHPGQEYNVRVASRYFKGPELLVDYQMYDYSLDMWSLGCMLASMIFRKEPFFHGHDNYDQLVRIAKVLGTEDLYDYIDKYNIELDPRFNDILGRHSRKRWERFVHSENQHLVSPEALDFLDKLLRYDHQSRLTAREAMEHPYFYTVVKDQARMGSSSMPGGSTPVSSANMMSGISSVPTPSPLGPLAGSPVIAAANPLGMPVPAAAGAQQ

The source of these data is article PMC4491662, “Synthesis, Biological Evaluation and Molecular Modeling of Substituted Indeno[1,2-b]indoles as Inhibitors of Human Protein Kinase CK2” (Pharmaceuticals, 2015).

Molecules are shown by their SMILES.

By IC50 is commonly meant the concentration needed to halve the response being measured. Lower therefore signals greater potency in that assay. By inhibition is commonly meant the percentage by which the read-out fell short of the control. `Cc1cc(O)c2c3c(n(C(C)C)c2c1)-c1ccccc1C3=O` [Compound 6a, 9-Hydroxy-5-isopropyl-7-methyl-5H-indeno[1,2-b]indol-10-one] had an IC50 of 1.27 ± 0.27 µM and an inhibition at 10 µM of 64%.

`CC(C)c1cc(O)c2c3c(n(C(C)C)c2c1)-c1ccccc1C3=O` [Compound 6b, 9-Hydroxy-5,7-diisopropyl-5H-indeno[1,2-b]indol-10-one]: the half-maximal inhibitory concentration (IC50) was determined as 1.45 ± 0.32 µM and the inhibition at 10 µM amounted to 60%.

Compound `CC(C)n1c2c(c3c(O)cc(-c4ccccc4)cc31)C(=O)c1ccccc1-2` [Compound 6c, 9-Hydroxy-5-isopropyl-7-phenyl-5H-indeno[1,2-b]indol-10-one] registered an inhibition at 10 µM of 42%.

Take `CC(C)n1c2c(c3c(O)cc(-c4ccc(F)cc4)cc31)C(=O)c1ccccc1-2` [Compound 6d, 7-(4-Fluorophenyl)-9-hydroxy-5-isopropyl-5H-indeno[1,2-b]indol-10-one]: the IC50 stood at 2.77 ± 0.35 µM and the inhibition at 10 µM is 59%.

Regarding `CC(C)n1c2c(c3c(O)cc(-c4ccco4)cc31)C(=O)c1ccccc1-2` [Compound 6e, 7-Furan-2-yl-9-hydroxy-5-isopropyl-5H-indeno[1,2-b]indol-10-one], the IC50 turned out to be 3.63 ± 0.34 µM and at 10 µM the inhibition was 65%.

With `CC(C)c1ccc2c(c1O)c1c(n2C(C)C)-c2ccccc2C1=O` [Compound 6g, 9-Hydroxy-5,8-diisopropyl-5H-indeno[1,2-b]indol-10-one], the inhibition at 10 µM came to 35%.
